{"source": "patent US8257690B2", "about": "“Protein-based polymer tissue adhesives for medical use” (Actamax Surgical Materials, LLC, priority 2004, dated 2012)", "system": "CHO-K1 cells", "type": "cell-based, Chinese hamster", "method": "Tests were done using Chinese hamster ovary (CHO-K1) cell cultures according to ISO10993-5:1999. The CHO-K1 cells were obtained from the American Type Culture Collection (ATCC), Manassas, Va., and were grown in F12-K medium supplemented with 10% fetal bovine serum.\nCytotoxicities of polyamines were determined as described Examples 25-35, except that 100 μL of a 10 wt % aqueous solution of each polyamine was mixed with 1 mL of culture medium, incubated for 24 h at 37° C., serially diluted, and then 100 μL of each of these solutions was added to the CHO-K1 cells. The CHO-K1 cells had previously been plated out at 50,000 cells per well in a culture plate, incubated in 100 μL of culture medium for 24 h, and decanted of medium. After incubation of CHO-K1 cells with the serially diluted polyamine solutions for 18 h at 37° C., cell viability was determined by a colorimetric assay of mitochondrial dehydrogenase-catalyzed reduction of MTT (Sigma TOX-1®; Sgouras, et al. Journal of Materials Science: Materials in Medicine 1:61-68 (1990)) and an adenylate kinase-based luminescence assay of ATP (ToxiLight®; Crouch, et al. Journal of Immunological Methods 160:81-88 (1993)).", "data": [{"substance": "8-arm poly(ethylene glycol) octaamine [Example 36]", "values": [{"measurement": "CHO-K1 Cell Viability", "value": 100}]}]}
